Results as given in paper PMC12678819, “Targeting bacterial kinases as a strategy to counteract antibiotic resistance” (2025).
Values joined by “and” are separate entries in the source; they are usually repeats but may differ in a detail not shown here. Identical values can stand only once.

Sequences of proteins named here, by UniProt entry; tags and fusion partners are left off. Residues count along the entry.
UniProt P22830, 55-423 limits assumed: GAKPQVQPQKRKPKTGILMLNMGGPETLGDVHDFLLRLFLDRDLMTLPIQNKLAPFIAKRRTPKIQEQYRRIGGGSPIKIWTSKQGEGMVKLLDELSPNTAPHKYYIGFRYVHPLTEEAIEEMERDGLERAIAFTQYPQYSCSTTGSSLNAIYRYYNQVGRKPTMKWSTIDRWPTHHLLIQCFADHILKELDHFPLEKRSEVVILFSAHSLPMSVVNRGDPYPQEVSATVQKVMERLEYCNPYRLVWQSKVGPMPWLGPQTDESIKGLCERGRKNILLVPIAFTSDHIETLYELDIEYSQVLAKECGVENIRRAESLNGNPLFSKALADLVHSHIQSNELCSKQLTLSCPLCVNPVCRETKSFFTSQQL
UniProt P53779, 39-402 limits assumed: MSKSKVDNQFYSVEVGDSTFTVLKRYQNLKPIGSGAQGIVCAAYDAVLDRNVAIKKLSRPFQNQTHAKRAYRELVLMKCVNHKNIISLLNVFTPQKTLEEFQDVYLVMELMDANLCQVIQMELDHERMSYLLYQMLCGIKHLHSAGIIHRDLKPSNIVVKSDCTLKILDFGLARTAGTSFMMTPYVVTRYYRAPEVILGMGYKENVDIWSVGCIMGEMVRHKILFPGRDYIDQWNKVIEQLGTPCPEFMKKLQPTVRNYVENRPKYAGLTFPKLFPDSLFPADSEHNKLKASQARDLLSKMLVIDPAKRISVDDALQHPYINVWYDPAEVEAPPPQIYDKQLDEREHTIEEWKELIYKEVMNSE
UniProt Q00532, 4-287 limits assumed: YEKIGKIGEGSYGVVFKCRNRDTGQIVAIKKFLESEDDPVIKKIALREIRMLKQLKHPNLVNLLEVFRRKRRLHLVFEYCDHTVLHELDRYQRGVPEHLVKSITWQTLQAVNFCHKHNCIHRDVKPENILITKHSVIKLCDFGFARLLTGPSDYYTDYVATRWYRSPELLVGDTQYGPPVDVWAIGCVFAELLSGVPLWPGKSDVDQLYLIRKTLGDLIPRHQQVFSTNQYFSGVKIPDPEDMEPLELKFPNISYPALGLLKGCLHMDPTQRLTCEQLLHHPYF

What was measured:
[1] = Plasma protein binding, mouse; conditions: for PPB mouse (%): mean; for PPB mouse, single replicate: maus, raw data of Table 3
[2] = Metabolic stability assay, human microsomes
[3] = Metabolic stability assay, mouse microsomes
[4] = Plasma stability assay, human; conditions: 1 μg∙mL-1
[5] = Plasma protein binding, human; conditions: for PPB human (%): mean; for PPB human, single replicate: raw data of Table 3
[6] = Plasma stability assay, mouse; conditions: 1 μg∙mL-1
[7] = cited from earlier work
FECH [8] = molecular target: T1, FECH (Homo sapiens, UniProt P22830); assay: DSF kinase panel; conditions: 10 μM
FECH [9] = molecular target: T1, FECH; conditions: reference compound, quantity not specified; cited from earlier work
JNK3 = JNK3 (Homo sapiens, UniProt P53779); assay: DSF kinase panel; conditions: 10 μM
CDKL1 = CDKL1 (Homo sapiens, UniProt Q00532); assay: DSF kinase panel; conditions: 10 μM

OCCn1cc(-c2c(Cl)cnc3[nH]ccc23)nn1
PPB mouse (%) [1]: 72.0 ± 18.0%
t1/2 human microsomes [2]: >1 h
t1/2 mouse microsomes [3]: >1 h
t1/2 human plasma [4]: >4 h
PPB human (%) [5]: 88.7 ± 3.7%
PPB human, single replicate [5]: 86.3% and 86.9% and 92.9%
t1/2 mouse plasma [6]: 2.758 h

dalbavancin
plasma protein binding [7]: > 99%

CC(C)(C)C(=O)OCn1cc(-c2c(Cl)cnc3[nH]ccc23)nn1
t1/2 human microsomes [2]: 0.0487 h
t1/2 mouse microsomes [3]: 0.674 h
t1/2 human plasma [4]: 1.33 h
t1/2 mouse plasma [6]: <0.083 h

O=C(Cn1cc(-c2c(Cl)cnc3[nH]ccc23)nn1)NCc1ccccc1
PPB mouse (%) [1]: 82.0 ± 17.7%
t1/2 human microsomes [2]: >1 h
t1/2 mouse microsomes [3]: >1 h
t1/2 human plasma [4]: >4 h
PPB human (%) [5]: 95.2 ± 4.5%
PPB human, single replicate [5]: 90.1% and 96.8% and 98.7%
t1/2 mouse plasma [6]: 2.44 h

COc1ccc(CNC(=O)Cn2cc(-c3c(Cl)cnc4[nH]ccc34)nn2)cc1
PPB mouse, single replicate [1]: 91.3% and 70.5% and 81.4%
PPB mouse (%) [1]: 81.1 ± 10.4%
t1/2 human microsomes [2]: >1 h
t1/2 mouse microsomes [3]: >1 h
t1/2 human plasma [4]: >4 h
PPB human (%) [5]: 95.4 ± 0.9%
PPB human, single replicate [5]: 96.4% and 94.9% and 94.7%
t1/2 mouse plasma [6]: 2.128 h

CCCS(=O)(=O)Nc1ccc(F)c(C(=O)c2c[nH]c3ncc(-c4ccc(Cl)cc4)cc23)c1F
ΔTm FECH (FECH [8]): 5.5 °C
Reference (FECH [9]): 1000 nM

Clc1cnc2[nH]ccc2c1-c1c[nH]nn1
PPB mouse (%) [1]: 77.9 ± 13.6%
t1/2 human microsomes [2]: >1 h
t1/2 mouse microsomes [3]: 1.254 h
t1/2 human plasma [4]: >4 h
PPB human (%) [5]: 98.9 ± 0.5%
PPB human, single replicate [5]: 99.3% and 98.4% and 99.1%
t1/2 mouse plasma [6]: 2.93 h

Cc1cc(-c2c(Cl)cnc3[nH]ccc23)[nH]n1
PPB mouse, single replicate [1]: 94.9% and 76.2% and 81.5%
PPB mouse (%) [1]: 84.2 ± 9.6%
t1/2 human microsomes [2]: >1 h
t1/2 mouse microsomes [3]: >1 h
t1/2 human plasma [4]: 4.18 h
PPB human, single replicate [5]: 95.8% and 90.9% and 97.6%
t1/2 mouse plasma [6]: 3.002 h

Clc1cnc2[nH]ccc2c1-c1cn(Cc2ccccc2)nn1
PPB mouse, single replicate [1]: 98.9%
PPB mouse (%) [1]: 99.6 ± 0.6%
t1/2 human microsomes [2]: >1 h
t1/2 mouse microsomes [3]: >1 h
t1/2 human plasma [4]: >4 h
PPB human (%) [5]: 98.0%
PPB human, single replicate [5]: 96.1% and 99.3% and 98.7%
t1/2 mouse plasma [6]: 2.238 h

Fc1ccc(-n2cc(-c3c(Cl)cnc4[nH]ccc34)nn2)cc1
PPB mouse, single replicate [1]: 97.0% and 98.2% and 96.7%
PPB mouse (%) [1]: 97.3 ± 0.8%
t1/2 human microsomes [2]: >1 h
t1/2 mouse microsomes [3]: >1 h
t1/2 human plasma [4]: <0.083 h
PPB human (%) [5]: 97.2 ± 1.8%
PPB human, single replicate [5]: 95.8% and 99.2% and 96.5%
t1/2 mouse plasma [6]: 2.058 h

Fc1cccc(-n2cc(-c3c(Cl)cnc4[nH]ccc34)nn2)c1
PPB mouse, single replicate [1]: 99.4% and 98.2% and 98.5%
PPB mouse (%) [1]: 98.7 ± 0.6%
t1/2 human microsomes [2]: 0.0293 h
t1/2 mouse microsomes [3]: 0.0438 h
t1/2 human plasma [4]: >4 h
PPB human (%) [5]: 99.2 ± 0.4% and 99.2%
PPB human, single replicate [5]: 98.7% and 99.5% and 99.2%
t1/2 mouse plasma [6]: 1.93 h

COc1cc2ncnc(Oc3cccc(NC(=O)Nc4cc(C(C)(C)C(F)(F)F)on4)c3)c2cc1OC
ΔTm JNK3 (JNK3): 8.8 °C
ΔTm CDKL1 (CDKL1): 6.6 °C

Clc1cnc2[nH]ccc2c1-c1cn(-c2cccnc2)nn1
PPB mouse, single replicate [1]: 88.4% and 72.6% and 84.0%
PPB mouse (%) [1]: 81.6 ± 8.2%
t1/2 human microsomes [2]: >1 h
t1/2 mouse microsomes [3]: >1 h
t1/2 human plasma [4]: >4 h
PPB human (%) [5]: 89.9 ± 8.0%
PPB human, single replicate [5]: 81.0% and 92.5% and 96.3%
t1/2 mouse plasma [6]: 2.225 h

Cc1ccc(-n2cc(-c3c(Cl)cnc4[nH]ccc34)nn2)cc1
PPB mouse, single replicate [1]: 99.6% and 99.4% and 99.5%
PPB mouse (%) [1]: 99.5%
PPB mouse (%) ([1]; listed as 14 g): 99.5 ± 0.1%
t1/2 human microsomes [2]: 0.322 h
t1/2 mouse microsomes [3]: 0.322 h
t1/2 human plasma [4]: 4.017 h
PPB human (%) [5]: 99.4%
PPB human (%) ([5]; listed as 14 g): 99.4 ± 0.5%
PPB human, single replicate [5]: 98.8% and 99.9% and 99.4%
t1/2 mouse plasma [6]: 1.91 h
